# Data published in PubChem BioAssay AID602274 (Sanford-Burnham Center for Chemical Genomics, 2012).
# The list shows a part of the results, in another mix than the full data. Some results for these compounds are left out of this collection, so the calls shown say nothing about other tests. Active and inactive are the calls of the source. No stated cut-off is given here; in the data, active means survival enhancement above about 18%; inactive means the rest.
# Assay: compounds raising survival of dissociated human iPSCs – cell-based, ATPlite luminescence, primary screen (AID 602274);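 further: cells exposed to compounds for 16 hours before the ATP read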
# Details: hiPSC single-cell survival, at 20 µM, hits give high values, 100% = ROCK inhibitor wells, 0% = DMSO
row,Compound,survival enhancement
1,COc1cccc(C(=O)NCC2(N3CCCCC3)CCCCC2)c1,inactive: -0.7%
2,COc1ccc(Cl)cc1C(=O)NCC1(N(C)C)CCCCC1,inactive: -0.6%
3,O=C(NCC1(N2CCCCC2)CCCCC1)c1cccc(Cl)c1,inactive: 0.5%
4,CN(C)C1(CNC(=O)c2ccc(Br)cc2)CCCCC1,inactive: -0.4%
5,COc1cc(C(=O)NCC2(N(C)C)CCCCC2)c([N+](=O)[O-])cc1OC,inactive: 0%
6,C=C(C)C#CC(O)(C(=O)OC1CCN(C)CC1)c1ccccc1 (stereo unspecified),inactive: 5.2%
7,COc1ccc(Br)c(C(=O)NCC2(N3CCCCC3)CCCCC2)c1,inactive: -0.5%
8,CC(C)Oc1ccc(C(=O)NCC2(N(C)C)CCCCC2)cc1,inactive: -0.4%
9,O=C(OCCN1CCCC1)C(O)(c1ccccc1)c1ccccc1,inactive: 3%
10,CN(C)c1cccc(C(=O)NCC2(N(C)C)CCCCC2)c1,inactive: -3.2%
11,O=C(OC1CN2CCC1CC2)C(CO)(c1ccccc1)c1ccccc1 (stereo unspecified),inactive: -2.3%
12,CCN(CC)CC(C)C(C)OC(=O)C(O)(c1ccccc1)c1ccccc1 (stereo unspecified),inactive: -0.2%
13,COc1cc(SC)ccc1C(=O)NCC1(N(C)C)CCCCC1,inactive: -0.1%
14,CC(C)N1C(=O)CC2(CCN(CCOC(=O)C(O)(c3ccccc3)c3ccccc3)CC2)C1=O,inactive: 0.8%
15,Cc1ccc(C(=O)NCC2(N3CCCCC3)CCCCC2)cc1,inactive: -0.1%
16,O=C(NCC1(N2CCCCC2)CCCCC1)c1cc([N+](=O)[O-])ccc1Cl,inactive: -0.5%
17,CN1[C@@H]2CC[C@H]1CC(OC(=O)C(O)(c1ccccc1)c1ccccc1)C2 (stereo partly specified),inactive: 0.2%
18,C=CCN1CCN(CCOC(=O)C(O)(c2ccccc2)c2ccccc2)CC1,inactive: 3.1%
19,O=C(NCC1(N2CCCCC2)CCCCC1)c1cc(F)c(F)cc1Cl,inactive: -0.6%
20,COc1ccc(C(=O)NCC2(N(C)C)CCCCC2)cc1,inactive: -0.8%
21,CCN1CCCC(OC(=O)C2(O)c3ccccc3C=Cc3ccccc32)C1 (stereo unspecified),inactive: -0.5%
22,Cc1cc(C(=O)NCC2(N3CCCCC3)CCCCC2)ccc1[N+](=O)[O-],inactive: -0.6%
23,O=C(NCC1(N2CCCCC2)CCCCC1)c1cccc(Br)c1,inactive: -0.6%
24,Cc1ccccc1C(=O)NCC1(N2CCCCC2)CCCCC1,inactive: 0.2%
25,CN(C)c1ccc(C(=O)NCC2(N(C)C)CCCCC2)cc1,inactive: -0.4%
26,CN(C)C1CCCC1OC(=O)C(O)(c1ccccc1)c1ccccc1 (stereo unspecified),inactive: -3.2%
